# Reference: patent US20130022611A1, “METHODS AND COMPOSITIONS FOR MODULATING HEPSIN ACTIVATION OF UROKINASE-TYPE PLASMINOGEN ACTIVATOR” (Genentech, Inc., priority 2006, published 2013)
# Protein sequences, listed by entry. Tags and fused reporters are not part of them. Residues count along the entry.
# UniProt P05981, 45-417 limits assumed: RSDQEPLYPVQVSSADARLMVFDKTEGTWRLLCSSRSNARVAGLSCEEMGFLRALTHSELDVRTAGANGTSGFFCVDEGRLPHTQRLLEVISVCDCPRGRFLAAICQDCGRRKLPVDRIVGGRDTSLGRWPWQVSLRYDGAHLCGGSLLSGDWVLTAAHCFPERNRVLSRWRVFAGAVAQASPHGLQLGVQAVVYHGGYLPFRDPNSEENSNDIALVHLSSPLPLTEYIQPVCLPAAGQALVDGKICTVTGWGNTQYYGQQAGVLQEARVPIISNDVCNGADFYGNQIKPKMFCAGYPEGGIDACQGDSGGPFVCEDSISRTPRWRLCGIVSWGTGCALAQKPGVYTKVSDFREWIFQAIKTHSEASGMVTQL
# UniProt Q9Y5Y6, 615-854 limits assumed: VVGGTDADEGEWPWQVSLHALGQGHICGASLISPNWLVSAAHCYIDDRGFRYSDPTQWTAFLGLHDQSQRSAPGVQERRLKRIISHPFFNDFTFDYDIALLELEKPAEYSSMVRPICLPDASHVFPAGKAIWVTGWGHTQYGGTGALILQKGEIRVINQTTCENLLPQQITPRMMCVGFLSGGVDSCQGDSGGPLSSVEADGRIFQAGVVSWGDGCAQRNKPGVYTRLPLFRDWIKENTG
# Experiments:
# [1] = test system: LnCaP-34 cells (hepsin-overexpressing); experiment: Pro-uPA activation by LnCaP-34 cells (two-stage enzymatic assay); conditions: LnCaP-34, 10 μM HI-10331, 100 nM pro-uPA, 37° C.; mean of two experiments
# Experimental: (§1) Confluent LnCaP-34 and LnCaP-17 cells were washed with HBSA-Glucose buffer (20 mM Hepes pH 7.5, 150 mM NaCl, 5 mM CaCl2, 0.05 mg/ml BSA, 5 mM glucose) and 0.8 ml of 100 nM pro-uPA in pre-warmed HBSA-Glucose buffer was added to the cell layers. The inhibitors KD1 or HI-10331 were added to give final concentrations of 1 μM and 10 μM, respectively. The culture plates were kept at 37° C. and 50 μl samples were withdrawn at different time points, supplemented with 0.2 ml of […] S2444 in Hepes buffer and the increase in absorbance at 405 nm measured on a kinetic microplate reader. Cell numbers were determined at the end of the experiments. The concentration of formed uPA in each sample was calculated from a standard curve of enzymatically converted pro-uPA and normalized to 10^6 cells. After subtracting the background levels of uPA formed in the absence of cell layer, the linear rates of uPA formation/10^6 cells were determined.
# uPA = uPA (Homo sapiens, UniProt P00749); experiment: Enzymatic assay of uPA with chromogenic substrate S2444
# Experimental: (§2) The reversible active site inhibitor HI-10331 (Genentech, Inc.) (having the molecule structure depicted in FIG. 10, and disclosed in U.S. Pat. No. 6,472,393) or HAI-2 were incubated with 0.5 nM hepsin, 0.5 nM matriptase and 10 nM uPA for 30 min in Hepes buffer (20 mM Hepes, pH 7.5, 150 mM NaCl, 5 mM CaCl2, 0.01% Triton X-100) at room temperature. The chromogenic substrates S2366 (for hepsin), S2765 (for matriptase) and S2444 (for uPA) were added at a concentration corresponding to their respective Km values, which were determined in separate experiments. After substrate addition, the linear rates of the increase in absorbance at 405 nm was measured on a kinetic microplate reader (Molecular Devices, Sunnyvale, Calif.).
# (§3) For HI-10331, the inhibitor concentration that gave a 50% inhibition of the enzymatic activity (IC50) was determined by fitting the data to a four-parameter equation (Kaleidagraph version 3.6, Synergy Software, Reading, Pa.). The Ki values were calculated according to the relationship Ki=IC50/(1+[S]/Km) (23) using the experimentally determined IC50 and Km values for each enzyme-substrate pair. For HAI-2, the apparent Ki values (Ki^*) were determined by fitting the data to the equation for tight binding inhibition (24,25).
# hepsin = hepsin (Homo sapiens, UniProt P05981); experiment: Enzymatic assay of hepsin with chromogenic substrate S2366
# Experimental: as §2, §3
# matriptase = matriptase (Homo sapiens, UniProt Q9Y5Y6); experiment: Enzymatic assay of matriptase with chromogenic substrate S2765; conditions: read-out: Ki ± SD; 0.5 nM matriptase, S2765 at Km; Ki=IC50/(1+[S]/Km)
# Experimental: as §2, §3
# LnCaP-17 cells = experiment: Pro-uPA activation by LnCaP-17 cells (two-stage enzymatic assay)
# Experimental: as §1
compound,measurement,setting,value
CCCS(=O)(=O)NC[C@H](Nc1ccc(C(=N)N)cc1)c1cc(OCC)c(OCc2ccccc2)cc1NS(C)(=O)=O,Rate of pro-uPA activation per 10^6 cells,[1],"0.4 (0.4, 0.3)^a nM uPA hr^−1"
same,Interference with uPA activity,uPA,did not interfere
same,Ki,"uPA; read-out: Ki ± SD, 10 nM uPA, S2444 at Km, Ki=IC50/(1+[S]/Km)",> 10 µM
same,Potency for hepsin relative to matriptase,hepsin; hepsin vs matriptase,more than 200 fold
same,Ki,"hepsin; read-out: Ki ± SD, 0.5 nM hepsin, S2366 at Km, Ki=IC50/(1+[S]/Km)",0.0416 µM
same,Ki,matriptase,> 10 µM
same,Rate of pro-uPA activation per 10^6 cells,"LnCaP-17 cells; LnCaP-17, 10 μM HI-10331, 100 nM pro-uPA, 37° C., mean of two experiments","0.7 (0.8, 0.6)^a nM uPA hr^−1"
same,"Rate of pro-uPA cleavage remaining, of the control rate","LnCaP-17 cells; LnCaP-17, in the presence of HI-10331",about 30%

# Marks after values point to notes of the source that are not given here.
